Screen for blockers of NLRP3-driven cell death, PubChem AID 2061109 (Seoul National University).
Cells: mouse bone marrow macrophages; stimulus: LPS priming, then nigericin; dose: 5 µM; read-out: propidium iodide uptake by live imaging.
Inhibition in %: 0 = stimulated control, 100 = untreated cells; values below 0 were filed as 0. * marks the depositor's active call (above 70%). Part of the library is listed.

compound | inhibition [%]
COC(=O)Nc1nc2ccc(C(=O)c3cccs3)cc2[nH]1 | 14.4
O=C(Cn1c(CCNCC(=O)c2ccccc2)nc2ccccc21)Nc1ccc2c(c1)CCC2 | 14.2
CN(C)[C@@H]1C(=O)C(C(N)=O)=C(O)[C@@]2(O)C(=O)C3=C(O)c4c(O)cccc4C[C@H]3C[C@@H]12 | 14.0
C[n+]1c2cc(N)ccc2cc2ccc(N)cc21.[Cl-] | 13.9
COc1cc(C2CCN(C)CC2)ccc1Nc1ncc(C(F)(F)F)c(CCc2ccccc2CC(N)=O)n1 | 13.6
CCOC(=O)C1=C(COCCN)NC(C)=C(C(=O)OC)C1c1ccccc1Cl | 13.6
O=C(Nc1ccc(-n2nc(C(F)(F)F)cc2OC(F)F)cc1)c1ccncc1F | 13.5
CC(C)(C)c1ccc(S(=O)(=O)Nc2ccc(-n3ccnc3)cc2)cc1 | 13.4
CC(C)(C)CN(C(=O)CCl)C1CCS(=O)(=O)C1 | 13.3
CCN(CC)C(=O)c1ccc(-c2cc(NCCCN3CCCCC3)c3ccccc3n2)cc1.Cl.Cl | 12.9
Oc1cc2c(cc1O)CN(C(=S)NCCc1ccc(Cl)cc1)CCC2 | 12.7
CC(=O)N1CCC(c2nccnc2Oc2ccc(C(=O)c3nc4ccccc4[nH]3)cc2)CC1 | 12.7
C[C@@H]1[C@H](c2ccccc2)C[C@H](NC(=O)c2cnc3c(c2)C[C@@]2(C3)C(=O)Nc3ncccc32)C(=O)N1CC(F)(F)F | 12.6
CC(C)(C)c1ccc(CN2CCN(C(c3ccccc3)c3ccc(Cl)cc3)CC2)cc1.Cl.Cl | 12.5
Cl.O=C1N(CC2CCCCN2)CCN1c1ccccc1 | 12.3
COc1ccc(C2(CNC(=O)c3ccc(NC(=O)c4ccco4)cc3)CCOCC2)cc1 | 12.0
COc1cc2nnc(C(N)=O)c(Nc3ccc(C)cc3F)c2cc1N1CCN(CCO)CC1 | 11.9
Cc1ccc2c(c1)C(=O)C1(O)CCN(c3ccccc3)C1=N2 | 11.9
Nc1nc(OCc2ccc(CNC(=O)C(F)(F)F)cc2)c2[nH]cnc2n1 | 11.8
O=C(N[C@@H](C1CC1)C(F)(F)F)c1cc(-c2cnn3cc(-c4ccc(F)cc4)cnc23)cs1 | 11.7
Cc1nc2c(=O)n(C)c(=O)nc-2n(C)n1 | 11.6
COc1ccc2c(c1O)-c1c(OC)c(OC)cc3c1[C@H](C2)N(C)CC3.Cl | 11.6
C=C1C(=O)O[C@@H]2[C@H]3C(C)=CC[C@@]34O[C@@]4(C)CC[C@@H]12 | 11.4
C=CCNc1nc(NCC=C)nc(N2CCN(C(c3ccc(F)cc3)c3ccc(F)cc3)CC2)n1.CS(=O)(=O)O.CS(=O)(=O)O | 11.2
CCOC(=O)COc1ccc(C=C2SC(=N)NC2=O)cc1OC | 11.2
CN1CCC(COc2cnc(-c3cccc(Cn4nc(-c5cccc(C#N)c5)ccc4=O)c3)nc2)CC1 | 10.9
COc1ccc(C2=NC(c3ccc(Cl)cc3)C(c3ccc(Cl)cc3)N2C(=O)N2CCNC(=O)C2)c(OC(C)C)c1 | 10.8
Cn1cc(Nc2nccc(N3CC4CCC(C3)N4C(=O)[C@@H]3CC3(F)F)n2)cn1 | 10.5
Cl.O=C(O)c1cc(-c2ccc(C3CCNCC3)cc2)c2ccc(-c3ccc(C(F)(F)F)cc3)cc2c1 | 10.5
O=C1c2ccccc2C(=O)c2c(O)ccc(O)c21 | 10.3
CCCCCCCCCCCCCCCc1cccc(O)c1C(=O)O | 10.1
CN[C@@H]1[C@@H](O)[C@@H](O[C@@H]2[C@@H](O)[C@H](O[C@H]3O[C@H]([C@@H](C)NC)CC[C@H]3N)[C@@H](N)C[C@H]2N)OC[C@]1(C)O.O=S(=O)(O)O | 10.0
CC(=O)N1CCN(c2ccc([N+](=O)[O-])c(-c3ccc(F)c(C=C4SC(=O)NC4=O)c3)n2)CC1 | 9.6
Cc1nc(Nc2ncc(C(=O)Nc3c(C)cccc3Cl)s2)cc(N2CCN(CCO)CC2)n1.O | 9.3
CCc1sc(N)nc1-c1ccc(OC)cc1 | 9.3
O=C(Nc1nnc(-c2ccc(F)cc2)o1)N1CCc2ccccc2C1 | 9.2
CNC(=O)[C@@H](NC(=O)[C@H](CC(C)C)[C@H](O)C(=O)NO)C(C)(C)C | 9.2
CCCc1cc(-c2nc(-c3ccc(C)cc3)cs2)ccn1 | 9.2
CCOC(=O)N1c2ccc(C(F)(F)F)cc2[C@@H](N(Cc2cc(C(F)(F)F)cc(C(F)(F)F)c2)C(=O)OC)C[C@H]1CC | 8.9
Cc1ccc(C(=O)Nc2ccc(CN3CCN(C)CC3)c(C(F)(F)F)c2)cc1C#Cc1cnc2cccnn12.Cl | 8.9
CCCC(=O)N1CCCN(c2nc(N)c3cc(OC)c(OC)cc3n2)CC1.Cl | 8.9
CCCCCCCCCCC(C)(C)C(=O)Nc1c(OC)cc(OC)cc1OC | 8.7
CCOC(=O)[C@H](CCc1ccccc1)N[C@@H](C)C(=O)N1CCC[C@H]1C(=O)O.O=C(O)/C=C\C(=O)O | 8.5
CCS(=O)(=O)N1CC(CC#N)(n2cc(-c3ncnc4[nH]ccc34)cn2)C1 | 8.4
CCOc1nc2ccccc2n1Cc1ccc(NC(=O)N2CC(c3cccnc3)C2)cc1 | 8.4
Cc1ccc(S(=O)(=O)NC(=O)N[C@H]2[C@H]3CC[C@@](C)([C@H]2O)C3(C)C)cc1 | 8.2
COc1cc(C(=O)c2ccc(-c3csc(NC(=O)[C@@H](N)C(C)C)n3)cc2-n2cncn2)cc(OC)c1OC.Cl | 8.2
CC(C)(O)c1ccccc1CC[C@@H](SCC1(CC(=O)O)CC1)c1cccc(/C=C/c2ccc3ccc(Cl)cc3n2)c1 | 8.1
CNC(=O)[C@@H](c1ccccc1)N1CCc2cc(OC)c(OC)cc2[C@H]1CCc1ccc(C(F)(F)F)cc1 | 8.0
O=[N+]([O-])c1ccc(CNc2nc(NCc3cccc(C(F)(F)F)c3)nc3nc[nH]c23)cc1 | 8.0
CNCCCOc1cc(F)c(-c2c(Cl)nc3ncnn3c2N[C@@H](C)C(F)(F)F)c(F)c1 | 7.7
O=C(O)CCc1c(C(=O)O)[nH]c2cc(Cl)cc(Cl)c12 | 7.6
CCC(=O)c1ccc2c(c1)N(CCCN(C)C)c1ccccc1S2.Cl | 7.2
Cc1c(Br)cc(NCC(=O)N/N=C/c2cc([N+](=O)[O-])ccc2O)cc1Br | 6.9
CC(C)=CCc1cc(-c2coc3cc(O)cc(O)c3c2=O)cc(O)c1O | 6.7
Br.CN(C)CCCC1(c2ccc(F)cc2)OCc2cc(C#N)ccc21 | 6.7
CN1CCN(C(=O)N[C@@H](Cc2ccccc2)C(=O)N[C@H](C=CS(=O)(=O)c2ccccc2)CCc2ccccc2)CC1 | 6.2
CCOc1nc2cccc(C(=O)O)c2n1Cc1ccc(-c2ccccc2-c2noc(=O)[nH]2)cc1 | 6.2
CN(C)c1ccc2nc3ccc(=[N+](C)C)cc-3sc2c1.[Cl-] | 6.2
C#CCOc1ccc(Nc2nc(Nc3ccc(C)c(S(=O)(=O)NC(=O)CC)c3)ncc2F)cc1 | 6.2
O=c1nc2oc3ccccc3cc-2c(=O)[nH]1 | 6.0
C(=N\NC1=NCCN1)/c1c2ccccc2c(/C=N/NC2=NCCN2)c2ccccc12 | 5.6
C=C(F)C(=O)N1CC(n2nc(-c3ccc(C(F)(F)F)cc3)c3cccnc32)C1 | 5.5

For reference, 7 entries again:

compound | inhibition [%]
Cc1c(Br)cc(NCC(=O)N/N=C/c2cc([N+](=O)[O-])ccc2O)cc1Br | 6.9
O=c1nc2oc3ccccc3cc-2c(=O)[nH]1 | 6.0
CCS(=O)(=O)N1CC(CC#N)(n2cc(-c3ncnc4[nH]ccc34)cn2)C1 | 8.4
O=C(Cn1c(CCNCC(=O)c2ccccc2)nc2ccccc21)Nc1ccc2c(c1)CCC2 | 14.2
Cl.O=C1N(CC2CCCCN2)CCN1c1ccccc1 | 12.3
C=C(F)C(=O)N1CC(n2nc(-c3ccc(C(F)(F)F)cc3)c3cccnc32)C1 | 5.5
CCCCCCCCCCC(C)(C)C(=O)Nc1c(OC)cc(OC)cc1OC | 8.7